Bioassay records deposited in PubChem by Broad Institute.
Sampled rows, rich in hits. Any-hit rate of the full collection: about 2.8%.
PGC1a acetyl inh: PGC1a acetylation modulation, inhibitor mode; U2OS PGC1a acetylation, AlphaScreen anti-acetyl-lysine; with virally co-expressed GCN5 acetyltransferase; inhibition, % at 15.6 µM; actives 0.17% (n = 350,000);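 active = every replicate shows inhibition of at least 40%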;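 also: 0% = neutral control wells and 100% = positive control wells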
Statin myotox sup: suppression of simvastatin myotoxicity. C2C12 myotubes + simvastatin, ATP luminescence, 48 h; scaled: DMSO 0, geranylgeraniol control 100. rescue of ATP level, % at 7.49 µM. actives 0.78% (n = 330,000). AID 602340;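 active = mean ATP rescue above about 67%, or every replicate alone reaching that limit, limit read from the data, passing the limit was not always enough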;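 also: myotubes were challenged with 10 µM simvastatin during compound exposure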
E-sel inducer: induces E-selectin expression in human endothelial cells. P16581. activation, % at 7.58 µM. HUVEC E-selectin immunofluorescence imaging; normalized: neutral wells 0, TNF-alpha wells 100. actives 0.37% (n = 260,000);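 active = mean E-selectin-positive cell signal at least 10% of the positive control, reached in at least 60% of replicates, without over 20% cell loss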
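Test system – human umbilical vein endothelial cells (HUVEC), E-selectin induction · Input – 3,000 HUVEC seeded per well · Buffer or medium – EGM-2, gelatin · Compound dosing – single-point compound dose · Detection – immunofluorescence imaging · Measure – percent E-selectin-positive cells · Controls – TNF-alpha high, DMSO low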
UUG fidelity: modulators of start codon recognition fidelity in yeast; S. cerevisiae UUG-firefly luciferase reporter, luminescence/redox ratio; activity score, % at 18.7 µM; hit rate 0.13% among 350,000; AID 602363;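 active = replicate mean at a twofold rise or more, about +100% in these data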;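 note: firefly luciferase made from a UUG start codon reports start codon fidelity; reporter light over untreated wells divided by growth signal over untreated wells; some hits fall short of that in this replicate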
esBAF inh: inhibitors of esBAF chromatin remodeling in mouse ES cells; Bmi1-luciferase knock-in reporter, 24 h; 100% = twice the neutral-well signal; reporter increase, % at 12.5 µM; actives 2% (n = 350,000); AID 602393; in the data active = activation above about 40%;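 also: 0% = median of the plate's neutral control wells and 100% = double that signal; a rise in the Bmi1 reporter signal indicates esBAF inhibition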
PglD DTNB: blocks C. jejuni PglD acetyltransferase activity. actives 0.098% (n = 360,000). inhibition, % at 12.5 µM. purified PglD enzyme, DTNB colorimetric CoA detection; in the data active = inhibition above about 16%, passing the limit was not always enough
Starred values were filed as active, the others as inactive.

A first look, 2 compounds:
COc1ccc(/C=N/NC(=O)c2cccs2)c2ccccc12 was read as PGC1a acetyl inh -12.7, Statin myotox sup -0.4, UUG fidelity -13.4, esBAF inh 56.5* and PglD DTNB -2.4.
`O=C(N/N=C/c1ccc(OCc2ccccc2)cc1)c1cccs1` gave PGC1a acetyl inh 9.9, Statin myotox sup -26.1, UUG fidelity -18.1, esBAF inh 48.3* and PglD DTNB -4.7.

The whole of this part, from the start:
COc1ccc(/C=N/NC(=O)c2cccs2)c2ccccc12 was read as PGC1a acetyl inh -12.7, Statin myotox sup -0.4, UUG fidelity -13.4, esBAF inh 56.5* and PglD DTNB -2.4.
`O=C(N/N=C/c1ccc(OCc2ccccc2)cc1)c1cccs1` gave PGC1a acetyl inh 9.9, Statin myotox sup -26.1, UUG fidelity -18.1, esBAF inh 48.3* and PglD DTNB -4.7.
`O=C(Nc1ccc(OCc2ccccc2)cc1)c1cccs1` gave PGC1a acetyl inh 3.1, Statin myotox sup -13.2, UUG fidelity -11.6, esBAF inh 68.5* and PglD DTNB 7.1.
For O=C(N/N=C/c1ccc(OCc2ccccc2)cc1)c1ccncc1 the results were PGC1a acetyl inh 11.6, Statin myotox sup -7.2, E-sel inducer 0.3, UUG fidelity 4.3, esBAF inh 27.6 and PglD DTNB -1.6.
Cc1cc(C(=O)CN2C(=O)c3cccc(N)c3C2=O)c(C)n1Cc1cccs1 was read as PGC1a acetyl inh -2.3, UUG fidelity -11.1, esBAF inh 43.1* and PglD DTNB -3.4.
For CO[C@@H]1CN(C)C(=O)c2cc(NC(=O)CC(F)(F)F)ccc2OC[C@@H](C)N(C(=O)C2CCOCC2)C[C@@H]1C the results were PGC1a acetyl inh 2.9 and E-sel inducer -0.2.
`COc1ccc2c(c1)CC/C(=C\Nc1ccc3c(c1)OCO3)C2=O` gave PGC1a acetyl inh -12.6, Statin myotox sup -17.3, UUG fidelity -29.5, esBAF inh 53.2* and PglD DTNB 1.5.
`Cc1ccc(S(=O)(=O)N(CC(=O)N/N=C\c2cccs2)c2cccc3cccnc23)cc1` gave E-sel inducer -1.3.
`CS(=O)(=O)N(CC(=O)N/N=C/c1cccs1)c1cccc(Cl)c1Cl` gave PGC1a acetyl inh -7.9, Statin myotox sup 118.6*, UUG fidelity 24.4, esBAF inh -0.1 and PglD DTNB -0.3.
`CC(C)NC(=O)N(C)C[C@H]1Oc2ccc(NC(=O)CCC(F)(F)F)cc2CC(=O)N([C@@H](C)CO)C[C@H]1C` gave PGC1a acetyl inh -0.1, Statin myotox sup -3.9, E-sel inducer 54.6*, UUG fidelity 1.7, esBAF inh 3.1 and PglD DTNB 2.5.
Screening CC(C)NC(=O)N(C)C[C@@H]1Oc2ccc(NC(=O)CCC(F)(F)F)cc2CC(=O)N([C@@H](C)CO)C[C@H]1C returned PGC1a acetyl inh 13.1, Statin myotox sup 2.7, E-sel inducer 112.8*, UUG fidelity 1.3, esBAF inh -3.1 and PglD DTNB 3.3.
Screening CC(C)NC(=O)N(C)C[C@H]1Oc2ccc(NC(=O)CCC(F)(F)F)cc2CC(=O)N([C@H](C)CO)C[C@H]1C returned PGC1a acetyl inh 3.7, Statin myotox sup -2.9, E-sel inducer 19.5, UUG fidelity 1.7, esBAF inh 1.2 and PglD DTNB -5.5.
For CC(C)NC(=O)N(C)C[C@@H]1Oc2ccc(NC(=O)CCC(F)(F)F)cc2CC(=O)N([C@@H](C)CO)C[C@@H]1C the results were PGC1a acetyl inh 1.9, Statin myotox sup -3.2, E-sel inducer 24.6, UUG fidelity 1.2, esBAF inh -2.9 and PglD DTNB 4.2.
`CC(C)NC(=O)N(C)C[C@H]1Oc2ccc(NC(=O)CCC(F)(F)F)cc2CC(=O)N([C@H](C)CO)C[C@@H]1C` gave PGC1a acetyl inh -5.5, Statin myotox sup 5.3, E-sel inducer 42.7*, UUG fidelity 0.9, esBAF inh -1.6 and PglD DTNB 10.1.
Cc1ccccc1S(=O)(=O)N1CCCCN2[C@@H](CO)[C@H](c3ccc(-c4ccccc4)cc3)[C@@H]2C1 was read as PGC1a acetyl inh -8.8, UUG fidelity -12.8 and PglD DTNB 4.0.
CCCNC(=O)N1CC2(CN(C(=O)Cc3cccnc3)C2)c2c([nH]c3cc(OC)ccc23)[C@@H]1CO was read as PGC1a acetyl inh 2.6 and E-sel inducer -0.1.
Screening NC(=O)C1CC(=O)N(c2ccc(OCc3ccc(Cl)c(Cl)c3)cc2)C1 (stereo not drawn) returned PGC1a acetyl inh 12.0, Statin myotox sup 10.1, E-sel inducer -1.4, UUG fidelity -14.1, esBAF inh 50.8* and PglD DTNB 1.2.
